Common to all, as to assay: Metabolic stability in hepatocytes
One data set has as its system dog hepatocytes. Here is the method: (§1) After mixing, 20 μL of cell suspension was serially transferred into 200 μL of cold acetonitrile containing IS at the time points of 0, 5, 15, 30, 60, and 120 min, respectively.
(§2) The metabolic stability was assessed by measuring the depletion of substrate. The half-life (t1/2), intrinsic clearance (CLint, in virto, µL·min^-1·million cells^-1), whole liver intrinsic clearance (CLint, in vivo, mL·min-1·kg^-1), and in vivo hepatic clearance (CLH, mL·min-1·kg^-1) were calculated following a reported method. In the calculation of CLH, the fraction drug unbound (Fub) was set as 1. The hepatic blood flow, liver weight, and hepatocellularity of five species were used for the calculation of CLint, in vivo [13, 14]. The hepatic extraction ratio (Eh) means the ratio of CLH to hepatic blood flow.

For the next data set, the system named is human hepatocytes. Here is the method: as §1, §2
A further data set concerns monkey hepatocytes. Here is the method:
as §1, §2

The next data set deals with mouse hepatocytes. On the procedure:
as §1, §2

The next data set deals with rat hepatocytes. Here is the method:
as §1, §2

For the compound `C[C@]12CC[C@H]3[C@@H](CCC4=CC(=O)CC[C@@]43C)[C@@H]1CC[C@@H]2O` [Testosterone, testosterone], the Eh in the data set with dog hepatocytes is 0.916; in the data set on human hepatocytes it was 0.901; in the data set on monkey hepatocytes, 0.832; with mouse hepatocytes, 0.860; with rat hepatocytes, 0.809.

Values taken from PMC12376128, “In vitro and In Vivo Drug Metabolism Analysis of BPI-460372 - A Covalent TEAD1/3/4 Inhibitor” (Current Drug Metabolism, 2025).
